According to US8569336B2, “Compounds for the treatment of inflammatory disorders” (priority 2008, dated 2013):

Tested on: TNF-α production from human whole blood
Assay: Inhibition of TNF-α production from human whole blood (hWBA), LPS stimulated, ELISA
Assay type: cell-based
Conditions: read-out: hWBA (IC50), LPS-stimulated human whole blood, TNF-α by ELISA

COc1ccc2c(c1)C(=O)N(C[C@@]1(c3cc4nc(N(c5cn[nH]c5)C5CCN(C)CC5)ccc4o3)NC(=O)NC1=O)C2 [Compound 1703]
IC50: 187 nM
